Assay [1] concerns the target CREBtide (Homo sapiens) (UniProt P16220). The following applies: cited from earlier work.
Assay [2] has as its target CREBtide. To be noted: cited from earlier work.
Assay [3] concerns the target Crosstide.
The target in assay [4] is full-length CREB fused to an N-terminal glutathione-S-transferase tag (GST-CREB) (UniProt P16220).
The target in assay [5] is Kemptide.

Usually Kd stands for the equilibrium constant for the complex coming apart. With PKA-Cα (from UniProt P17612), the Kd in assay [1] and in assay [2] was 3.9 µM in each case.
Regarding “wild-type H6-PKA-Cα, untreated (alpha isoform of the catalytic subunit of cAMP-dependent protein kinase) (from UniProt P05132 2-351) (enzyme)”, the values for the K (m,app), steady-state kinetics analysis (ADP-Glo) in assay [3], in assay [4] and in assay [5] were 73.4 µM, 3.39 µM and 44 µM, respectively.
